The conditions of this data set: all test substance-administered groups (10 and 20 μg/1 mL/head IV, single dose), Day 7, vs normal control group. The procedure: The intravenous administration was done by fixing an animal into a correction frame, and slowly injecting at a rate of within 1 mL/min through the micro vein using a syringe equipped with 26 gauges needle. The intraperitoneal administration was performed by fixing the animal by a transdermal skin fixation method and intraperitoneally injecting using a syringe equipped with 26 gauges needle.

Regarding “alarin (human) trifluoroacetate salt [test substance]”, the “weight level measured on the day of necropsy” value is “no significant difference from the normal control group”.

These data come from US11642392B2, “Therapeutic agent of uremia containing alarin as the main ingredient” (JU TIDE CO., LTD., priority 2017, dated 2023).
